From patent US8105830

Protein sequences, listed by entry. Tags and fused reporters are not part of them. Residues count along the entry.
UniProt P22646, 22-189: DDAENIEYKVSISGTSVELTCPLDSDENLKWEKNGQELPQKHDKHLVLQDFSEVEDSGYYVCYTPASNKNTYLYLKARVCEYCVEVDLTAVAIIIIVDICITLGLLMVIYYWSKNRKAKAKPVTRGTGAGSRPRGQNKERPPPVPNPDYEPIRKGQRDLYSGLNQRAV

Legend:
[1] = molecular target: murine CD3-epsilon (CD3 on the surface of 2B4 T hybridoma cells) (murine) (UniProt P22646); assay: flow cytometry on 2B4 cells, 10 uL purified bispecific; detected with biotinylated anti-Vβ8.2 (F23.1) and streptavidin-cychrome; no-BISP control median 2.48
[2] = molecular target: murine CD3-epsilon (CD3 on the surface of 2B4 T hybridoma cells) (murine) (UniProt P22646); assay: flow cytometry on 2B4 cells, 5 uL purified bispecific; detected with biotinylated anti-Vβ8.2 (F23.1) and streptavidin-cychrome; no-BISP control median 2.48
[3] = molecular target: murine CD3-epsilon (CD3 on the surface of 2B4 T hybridoma cells) (murine) (UniProt P22646); assay: flow cytometry on 2B4 cells, 10 uL purified bispecific; detected with biotinylated anti-Vβ8.2 (F23.1) and streptavidin-cychrome; no-BISP control mean 8.08
[4] = molecular target: murine CD3-epsilon (CD3 on the surface of 2B4 T hybridoma cells) (murine) (UniProt P22646); assay: flow cytometry on 2B4 cells, 1 uL purified bispecific; detected with biotinylated anti-Vβ8.2 (F23.1) and streptavidin-cychrome; no-BISP control peak channel 1
[5] = molecular target: murine CD3-epsilon (CD3 on the surface of 2B4 T hybridoma cells) (murine) (UniProt P22646); assay: flow cytometry on 2B4 cells, 1 uL purified bispecific; detected with biotinylated anti-Vβ8.2 (F23.1) and streptavidin-cychrome; no-BISP control mean 8.08
[6] = molecular target: murine CD3-epsilon (CD3 on the surface of 2B4 T hybridoma cells) (murine) (UniProt P22646); assay: flow cytometry on 2B4 cells, 5 uL purified bispecific; detected with biotinylated anti-Vβ8.2 (F23.1) and streptavidin-cychrome; no-BISP control mean 8.08
[7] = molecular target: murine CD3-epsilon (CD3 on the surface of 2B4 T hybridoma cells) (murine) (UniProt P22646); assay: flow cytometry on 2B4 cells, 5 uL purified bispecific; detected with biotinylated anti-Vβ8.2 (F23.1) and streptavidin-cychrome; no-BISP control peak channel 1
[8] = molecular target: IA^d/OVA (OVA peptide 323-339 in the context of the class II MHC IA^d molecule) (mouse) (UniProt P01012); assay: cell-based or functional assay
[9] = molecular target: anti-idiotypic, anti-DO11.10 TCR mAb KJ-1; assay: cell-based or functional assay
[10] = molecular target: murine CD3-epsilon (CD3 on the surface of 2B4 T hybridoma cells) (murine) (UniProt P22646); assay: flow cytometry on 2B4 cells, 10 uL purified bispecific; detected with biotinylated anti-Vβ8.2 (F23.1) and streptavidin-cychrome; no-BISP control peak channel 1
[11] = molecular target: murine CD3-epsilon (CD3 on the surface of 2B4 T hybridoma cells) (murine) (UniProt P22646); assay: flow cytometry on 2B4 cells, 1 uL purified bispecific; detected with biotinylated anti-Vβ8.2 (F23.1) and streptavidin-cychrome; no-BISP control median 2.48

Median (FL3-H fluorescence) [1]: 24.6 | Median (FL3-H fluorescence) [2]: 14.5 | Mean (FL3-H fluorescence) [3]: 28.3 | Peak Ch (FL3-H) [4]: 3 | Mean (FL3-H fluorescence) [5]: 7.51 | Mean (FL3-H fluorescence) [6]: 19.3 | Peak Ch (FL3-H) [7]: 15 | IL-2 expressed by 2B4 T hybridoma cells (IL-2 ELISA); plate-bound IA^d/OVA; BISP alone [8]: 0.01 | IL-2 expressed by 2B4 T hybridoma cells (IL-2 ELISA); plate-bound IA^d/OVA; BISP plus MR5-2 mAb (dimerization) [8]: 0.271 | IL-2 in supernatant of 2B4 T hybridoma cells (IL-2 ELISA, OD450); immobilized KJ-1; BISP 2 ng/well [9]: 0.013 OD450 | IL-2 in supernatant of 2B4 T hybridoma cells (IL-2 ELISA, OD450); immobilized KJ-1; BISP 3.9 ng/well [9]: 0.036 OD450 | IL-2 in supernatant of 2B4 T hybridoma cells (IL-2 ELISA, OD450); immobilized KJ-1; BISP 7.8 ng/well [9]: 0.196 OD450 | IL-2 in supernatant of 2B4 T hybridoma cells (IL-2 ELISA, OD450); immobilized KJ-1; BISP 15.6 ng/well [9]: 0.72 OD450 | IL-2 in supernatant of 2B4 T hybridoma cells (IL-2 ELISA, OD450); immobilized KJ-1; BISP 31.2 ng/well [9]: 1.01 OD450 | IL-2 in supernatant of 2B4 T hybridoma cells (IL-2 ELISA, OD450); immobilized KJ-1; BISP 62.5 ng/well [9]: 1.34 OD450 | IL-2 in supernatant of 2B4 T hybridoma cells (IL-2 ELISA, OD450); immobilized KJ-1; BISP 125 ng/well [9]: 1.75 OD450 | IL-2 in supernatant of 2B4 T hybridoma cells (IL-2 ELISA, OD450); immobilized KJ-1; BISP 250 ng/well [9]: 2.07 OD450 | Peak Ch (FL3-H) [10]: 27 | Median (FL3-H fluorescence) [11]: 3.65
Substance: pBISP/DO11.10 bispecific sc molecule (DO11.10 scTCR - linker - 145-2C11 sc-Fv - EE tag)
